From PubChem BioAssay AID1486 (The Scripps Research Institute Molecular Screening Center, 2009)
The list shows a part of the results, in another mix than the full data. The source made the active and inactive calls.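 The calls were made as follows: active = inhibition above a per-campaign cutoff, the mean inhibition of all tested compounds plus 3 SD (cut at about 27% in these data); inactive = the rest.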

experiment: parental Ba/F3 cell viability inhibition, counter-screen for JAK2V617F inhibitor project, murine pro-B, CellTiter-Glo luminescence (AID 1486); details: CellTiter-Glo ATP luminescence, at 5.6 µM, stronger effect = higher value;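 also: 0% = DMSO wells and 100% = JAK Inhibitor I control wells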

Compound	inhibition
CN(C)c1ccc(C(=O)NCC2(N3CCCCC3)CCCCC2)cc1	inactive: 1.15%
CCN1CCC(Nc2cccc(F)c2)CC1	inactive: 6.65%
CCCOc1ccc(C)cc1CN(CCCl)CCCl	inactive: -2.92%
COc1cc(OC)cc(C(=O)NCC2(N3CCOCC3)CCCCC2)c1	inactive: 2.81%
CCC(CO)(C(=O)OC1CN2CCC1CC2)c1ccccc1 (centres undefined)	inactive: 3.7%
CC(C)(C)OC(=O)N1CCC(Nc2ccccc2)CC1	inactive: 4.94%
CCOc1ncccc1C(=O)NCC1(N2CCOCC2)CCCCC1	inactive: 1.72%
O=C(OC1CN2CCC1CC2)C1c2ccccc2C=Cc2ccccc21 (centres undefined)	inactive: 0.75%
N/C(=N\O)c1c(N)no[n+]1[O-]	inactive: 4.16%
COc1ccc(C(=O)NCC2(N3CCOCC3)CCCCC2)cc1OC	inactive: 7.11%
c1ccc(CN2CCC(Nc3ccccc3)CC2)cc1	inactive: 4.47%
N#Cc1ccc(C(=O)NCC2(N3CCCCC3)CCCCC2)cc1	inactive: 10.5%
O=C(NCC1(N2CCOCC2)CCCCC1)c1cc(=O)[nH]c2ccccc12	inactive: 4.01%
CN1CCN(CCOC(=O)C(O)(c2ccccc2)c2ccccc2)CC1	inactive: 6.5%
COc1ccc(NC2CCN(C(=O)OC(C)(C)C)CC2)cc1	inactive: -1.85%
N#CC1(Nc2ccccc2)CCN(CCc2ccccc2)CC1	inactive: -6.41%
O=C(NCC1(N2CCCCC2)CCCCC1)c1cccc([N+](=O)[O-])c1	inactive: 5.35%
CN1CCC(Nc2cccc(F)c2)CC1	inactive: 0.29%
CC(C)c1ccc(NC2CCN(C(=O)OC(C)(C)C)CC2)cc1	inactive: 0.72%
CN(C)c1cccc(C(=O)NCC2(N3CCCCC3)CCCCC2)c1	inactive: -0.71%
COc1ccc(CN(CCCl)CCCl)cc1Cl	inactive: -1.74%
O=C(OC1CN2CCC1CC2)C1c2ccccc2Oc2ccccc21 (centres undefined)	inactive: 2.68%
N#CC1(Nc2ccccc2)CCN(Cc2ccccc2)CC1	inactive: 2.6%
CCOC(=O)N1CCC(Nc2ccc(OC)cc2)CC1	inactive: 5.49%
O=C(NCC1(N2CCOCC2)CCCCC1)c1cc2ccccc2o1	inactive: 3.28%
COc1ccc(C(=O)NCC2(N3CCCCC3)CCCCC2)c(OC)c1OC	inactive: -1.97%
Cc1ccc(OCC(C)C)c(CN(CCCl)CCCl)c1	inactive: -0.9%
COc1ccc(NC2CCN(CCc3ccccc3)CC2)c(OC)c1	inactive: 3.44%
CCOc1ccc(C)cc1CN(CCCl)CCCl	inactive: -2.34%
